Calls of active or inactive are those of the source. The calls are words filed in the database; no cut-off is given here.
Columns and labels:
MSTO-211H = test: cells; details: Homo sapiens, 96 h
[1] = target: Cellular tumor antigen p53 (Homo sapiens) (UniProt P04637); type: cell-based; details: MSTO-211H, filed as activator, dose 1.0 µM, time 24.0 hrs
[2] = target: Cellular tumor antigen p53 (Homo sapiens) (UniProt P04637); type: cell-based; details: MSTO-211H, filed as activator, dose 1.0 µM, time 24.0 hrs; remark: listed apart in the source
[3] = target: Cellular tumor antigen p53 (Homo sapiens) (UniProt P04637); type: cell-based; details: MSTO-211H, filed as activator, dose 1.0 µM, time 24.0 hrs; remark: listed apart in the source

Amino acid sequences for entries named in this document (tags omitted).
UniProt P04637, whole entry, looked up: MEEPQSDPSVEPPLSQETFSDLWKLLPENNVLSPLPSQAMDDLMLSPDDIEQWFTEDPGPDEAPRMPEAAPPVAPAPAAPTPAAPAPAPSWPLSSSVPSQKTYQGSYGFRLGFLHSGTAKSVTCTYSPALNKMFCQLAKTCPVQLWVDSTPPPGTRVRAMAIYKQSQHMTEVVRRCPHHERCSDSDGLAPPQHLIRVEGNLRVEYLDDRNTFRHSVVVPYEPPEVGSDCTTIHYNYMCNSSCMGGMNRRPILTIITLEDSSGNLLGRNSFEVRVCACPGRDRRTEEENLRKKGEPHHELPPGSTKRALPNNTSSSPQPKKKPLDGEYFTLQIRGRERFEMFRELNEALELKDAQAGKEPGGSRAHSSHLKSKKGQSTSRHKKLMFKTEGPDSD

Compound | IC50 (MSTO-211H) [µM] | Activity [1] | Activity [2] | Activity [3]
CCC(C)(C)C[C@@H]1N2CN(c3ccc(C(=O)O)cc3OC)C(=O)[C@H]2[C@H](c2cccc(Cl)c2)[C@]12CNc1cc(Cl)ccc12 | 0.0684 | – | – | –
COc1cc(NC(=O)[C@@H]2N[C@@H](CC(C)(C)C)[C@](C#N)(c3ccc(Cl)cc3F)[C@H]2c2cccc(Cl)c2F)ccc1C(=O)O | 0.0447 | – | – | –
COc1cc(C(=O)O)ccc1N1CN2[C@@H](CC(C)(C)C)[C@@]3(CNc4cc(Cl)ccc43)[C@@H](c3cccc(Cl)c3)[C@@H]2C1=O | 0.0734 | Active | Active | Active
COc1ccc(C2=N[C@@H](c3ccc(Cl)cc3)[C@@H](c3ccc(Cl)cc3)N2C(=O)N2CCNC(=O)C2)c(OC(C)C)c1 [NUTLIN-3] | 1.03 | – | – | –

From ChEMBL document CHEMBL5512651, “Synthesis and biological evaluation of 4-imidazolidinone-containing compounds as potent inhibitors of the MDM2/p53 interaction” (Eur J Med Chem, 2024)
